# Measured values reported in patent publication US20040081655A1, “Methods and compositions comprising polycationic compounds” (priority 2001, published 2004).
# Key:
# [1] = Depot formation at the injection site, fluorescence-labelled compounds, photos (Example 2a); type: in vivo, Mice C57Bl/6; conditions: s.c. into the right flank; photos of injection sites
# Protocol: On day 0 mice were injected subcutaneously into the right flank with a total volume of 100 μl containing the above mentioned compounds. Animals were sacrificed at the indicated time points after injection and photos were taken from the injection sites (FIG. 2a).
# [2] = FACS analyses of lymphoid and non-lymphoid tissues for CpG-ODN-Cy5 (Example 2b); type: in vivo, Mice C57B1/6; conditions: co-application of poly-L-arginine; FACS at day 1
# Protocol: Mice were injected subcutaneously into the right flank with a total volume of 100 μl containing the above mentioned compounds. One day after injection, mice were sacrificed and FACS-analyses were performed from secondary lymphoid organs (draining lymph node, spleen) as well as non-lymphoid tissues (lung, liver, kidney, heart) (FIG. 2b).
# [3] = Depot formation at the injection site at day 4, labelled TRP-2 peptide/pR60/CpG-ODN (Example 3); type: in vivo, Mice C57Bl/6; conditions: co-injected at least with one more molecule
# Protocol: On day 0 mice were injected subcutaneously into the right flank with a total volume of […] containing the above mentioned compounds. Animals were sacrificed at day 4 after injection and photos were taken from the injection sites (FIG. 3).
substance,measurement,setting,value
Poly-L-Arginine,formation of a depot at the injection site,[1],induces the formation of a depot at the injection site
same,spreading of CpG-ODN-Cy5 throughout the body,[2],inhibits the spreading of CpG-ODN-Cy5 throughout the body
same,formation of a depot at the injection site,[3],induces the formation of a depot at the injection site
